Test results as given in paper PMC5691035.

Target: Pfs25, monomeric, Nicotiana benthamiana-produced (Plasmodium falciparum (NF54; identical in 3D7)) (UniProt P13829)
Assay: BLI

Kd	Substance
0.016 µM	1276 Fab
0.0067 µM	1190 Fab
